pKd: −log10 of the molar value.
Molecular target: BPTF bromodomain (human)
Assay: ITC

## H4K16ac peptide
  pKd: 4.00

From paper PMC3135172
